Earlier results, collected in US20240108592A1, “COMBINATION THERAPY WITH IMMUNOTHERAPEUTIC AGENT FOR CANCER” (Gongwin Biopharm Co., Ltd, priority 2022, published 2024).

Protein sequences, listed by entry. Tags and fused reporters are not part of them. Lines headed by an entry give the natural chain unless they say otherwise; changes in a name come on top. Residues count along the entry.
UniProt P43166: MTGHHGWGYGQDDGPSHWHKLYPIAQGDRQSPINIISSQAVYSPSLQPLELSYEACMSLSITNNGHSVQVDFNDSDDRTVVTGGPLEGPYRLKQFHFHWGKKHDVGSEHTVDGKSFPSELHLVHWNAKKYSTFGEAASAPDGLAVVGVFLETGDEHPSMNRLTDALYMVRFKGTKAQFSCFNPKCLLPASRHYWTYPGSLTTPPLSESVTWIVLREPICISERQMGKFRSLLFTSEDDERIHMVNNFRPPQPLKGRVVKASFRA
UniProt O43570, 25-354: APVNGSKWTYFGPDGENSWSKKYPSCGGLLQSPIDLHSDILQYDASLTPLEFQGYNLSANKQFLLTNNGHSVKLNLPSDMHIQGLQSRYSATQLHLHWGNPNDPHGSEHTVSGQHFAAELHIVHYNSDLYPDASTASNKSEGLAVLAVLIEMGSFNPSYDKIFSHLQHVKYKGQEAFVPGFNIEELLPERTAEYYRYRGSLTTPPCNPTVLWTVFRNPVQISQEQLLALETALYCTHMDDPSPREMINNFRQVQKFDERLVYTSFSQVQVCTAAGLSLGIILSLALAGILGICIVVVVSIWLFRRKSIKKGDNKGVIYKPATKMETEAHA

Key:
Conditions in all cases: background statement, no data
CA7 = CA7 (Homo sapiens, UniProt P43166)
CA9 = CA9 (Homo sapiens, UniProt Q16790)
CA12 = CA12 (Homo sapiens, UniProt O43570)

inhibitory effect on CA7 (CA7): strong inhibitory effect
inhibitory effect on CA9 (CA9): strong inhibitory effect
inhibitory effect on CA12 (CA12): strong inhibitory effect
SMILES: Cc1ccc(S(N)(=O)=O)cc1 [PTS, para-toluene sulfonamide]
